We go through 1 molecule from patent publication EP4678638A1, “NEW E3 UBIQUITIN LIGASE LIGAND, PROTEIN DEGRADATION AGENT AND USE THEREOF” (priority 2023, dated 2024).

Common to all, as to assay type: cell-based
The subject of one experiment is MDA-MB-231. Briefly: CCK-8 proliferation, MDA-MB-231. Particulars: Homo sapiens, 96 hours, read-out: Inhibitory activity (IC50) on tumor cell proliferation, MDA-MB-231. The protocol:
(§1) The tumor cells used herein were cultured in a cell culture medium listed in table A1 at 37°C in an incubator with 5% CO2. Prior to experimentation, all cell lines used were correctly identified by STR profiling, and tested negative for mycoplasma contamination using a mycoplasma detection kit through routine screenings. Table A1. Tumor cells and cell culture medium used in the present disclosure
(§2) IC50 values of the compounds of the present disclosure (including the compounds in Table 1, and compounds of examples) were measured using the Meilun Cell Counting Kit-8 kit from Dalian Meilun Biotech Co., Ltd. Assay details are as follows: tumor cells were seeded in a 96-well plate at a density listed in Table A2. After 24h, 100 µL of the inoculated cells were treated with 0.5µL of the compounds of the present disclosure (including the compounds in Tables 1 and 2, and compounds of examples) at 10 different successively decreasing concentrations (starting at the highest concentration of 10µM; 5-fold serial dilutions). […] The growth inhibition of the compounds of the present disclosure on cells was plotted by Prism Graphpad software, and the IC50 values of the compounds of the present disclosure were calculated therefrom. […]

In another experiment the test system is MCF7. Briefly: CCK-8 proliferation, MCF7 (MCF-7). Particulars: Homo sapiens, read-out: Inhibitory activity (IC50) on tumor cell proliferation, MCF-7. The protocol:
as §1, §2

The next experiment relates to MM.1S. Briefly: CCK-8 proliferation, MM.1S. Particulars: Homo sapiens, MM1.S, 72 hours, read-out: Inhibitory activity (IC50) on tumor cell proliferation, MM1S. As to the method: as §1, §2

As for `Nc1cccc2c1CN(C1CCC(=O)NC1=O)C2=O` (stereo not drawn) [lenalidomide, reference compound], the results for the IC50 with MDA-MB-231, with MCF7 and in the experiment with MM.1S were greater than 10 µM, greater than 10 µM and 5 to 10 µM, respectively.
